Like-named read-outs stand apart in the source and are kept apart here.
Target: melanocortin-4 receptor (Homo sapiens, UniProt P32245)
Assay: Membrane binding assay (fluorescence polarization, competition with fluorescence labeled NDP-alpha-MSH)
[1] = read-out: hMC-4R binding assay IC50/μM, HEK293 cell membrane preparations, tested form: HCl

Amino acid sequences for entries named in this document (tags omitted).
UniProt P32245, whole entry: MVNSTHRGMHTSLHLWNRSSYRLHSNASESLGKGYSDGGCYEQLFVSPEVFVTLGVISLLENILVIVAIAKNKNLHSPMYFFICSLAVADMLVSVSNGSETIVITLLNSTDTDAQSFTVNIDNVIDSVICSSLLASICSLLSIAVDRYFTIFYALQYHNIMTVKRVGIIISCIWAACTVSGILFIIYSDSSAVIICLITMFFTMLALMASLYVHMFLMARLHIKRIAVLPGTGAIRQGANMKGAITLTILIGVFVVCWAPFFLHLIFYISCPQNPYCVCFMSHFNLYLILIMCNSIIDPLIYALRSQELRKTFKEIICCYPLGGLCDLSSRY

SMILES	IC50 [1] [µM]	also measured
CC(C)CCN(CCC(C)C)C(=O)c1ccc2nc(-c3ccc(Cl)c(Cl)c3)c(CN3CCC(N)CC3)n2c1	0.1 to 1	–
CC(C)CCN(CCC(C)C)C(=O)c1ccc2nc(-c3ncco3)c(CCCN(C)CCF)n2c1	–	IC50 (read-out: hMC-4R binding assay IC50/μM, HEK293 cell membrane preparations, tested form: HCOOH): 0.1 to 1 µM
CC(C)CCN(CCC(C)C)C(=O)c1ccc2nc(-c3ccc(Cl)cc3)c(CN3CCCNCC3)n2c1	0.1 to 1	–
CC(C)CCN(CCC(C)C)C(=O)c1ccc2nc(-c3ccc(C#N)cc3)c(CN3CCCNCC3)n2c1	–	IC50 (read-out: hMC-4R binding assay IC50/μM, HEK293 cell membrane preparations, tested form: hydrochloride): 0.1 to 1 µM

Source: US8236818B2, “Substituted imidazopyridine derivatives as melanocortin-4 receptor antagonists” (Santhera Pharmaceuticals (Schweiz) AG, priority 2007, dated 2012)
